G9a block – inhibitors of human histone lysine methyltransferase G9a; Q96KQ7; G9a H3K9 monomethylation, AlphaScreen, 2 h; Potency, µM (series often up to 102 µM), actives largely listed as inhibitors; hit rate 8.8% among 350,000; AID 504332; also: nearly all actives have a fitted effect of over 75% in size
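Readings reflect AlphaScreen signal from monomethyl-H3K9 antibody detection. HMT at 20 nM; substrate b-H3K9 500 nM; cofactor SAM 20 uM; 2 h RT reaction; compounds tested as titrations in qHTS with 15 min preincubation.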
ALDH1A1 inh – inhibitors of human aldehyde dehydrogenase 1A1 | Purified ALDH1A1, NADH fluorescence, propionaldehyde substrate | hit rate 7.3% among 220,000 | AID 1030 | Potency, µM (doses to about 75.3 µM), actives largely listed as inhibitors | P00352; active = well fitted inhibition curve with a large enough effect, not every such curve was filed as active; inconclusive = small, poorly fitted or top-dose-only effect, or another doubt; inactive = no such curve, though single readings can be large or run the other way
Lamin A splicing – modulators of lamin A splicing | AID 1487 | HeLa LMNA splicing GFP/RFP minigene ratio, 48 h | Potency, µM (top dose mostly 46.1 µM), actives largely listed as inhibitors | hit rate 0.01% among 200,000; active = well fitted inhibition curve with a large enough effect in the signal ratio, with a control signal flat, not every such curve was filed as active; inconclusive = small, poorly fitted or top-dose-only effect, or effect the other way, or a change in a side signal; the % refers to the signal ratio
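S3 HeLa stable clones carrying a lamin A-EGFP splicing minigene plus DsRed2 were seeded at 600 cells/well in Opti-MEM with 2% FBS, pin-dosed and incubated 48 h at 37°C. Acumen cytometry (488 nm) gave the GFP/RFP total-intensity ratio.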
Sfp PPTase inh – inhibitors of Bacillus subtilis Sfp phosphopantetheinyl transferase | Q9F4F7 | Potency, µM, usual class: inhibitors | hit rate 3.5% among 310,000 | Biochemical Sfp PPTase activity, qHTS;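 also: the enzyme is Sfp with the accession as filed and its product quenches rhodamine fluorescence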
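Sfp 15 nM + cpd, 15 min RT; start w/ rhodamine-CoA 5 uM, BHQ-2-YbbR 12.5 uM (final); 50 mM Hepes pH 7.6, 10 mM MgCl2, 0.01% NP-40, 0.01% BSA; read 525/598 nm at 0 and 30 min.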
miR-21 FLuc – raises the signal of a miR-21 reporter; HeLa miR-21 FLuc reporter, luciferase, 48 h; Potency, µM (top dose mostly 38.3 µM); AID 2288; 340,000 tested, under 10 active; active = well fitted rising curve with a large enough effect; inconclusive = small, poorly fitted or top-dose-only effect; inactive = no such curve, though single readings can be large or run the other way;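 note: miR-21 action dims this reporter so a rising signal means less miR-21 action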
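HeLa miR-21-FLuc reporter line, endogenous miR-21; 2000 cells/well in DMEM/10% FBS; compound titration up to ~40uM final, 48 h, 37 degree Celsius; luciferase detection reagent, 15 min lysis, CCD luminescence.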
KDM4E inh – blocks human JMJD2E demethylase activity | Potency, µM (series often up to 57.1 µM), actives largely listed as inhibitors | JMJD2E catalytic domain, FDH-coupled NADH fluorescence (FDH is formaldehyde dehydrogenase) | hit rate 1.6% among 230,000 | B2RXH2; active = well fitted inhibition curve with a large enough effect, not every such curve was filed as active; inconclusive = small, poorly fitted or top-dose-only effect, or another doubt; inactive = no such curve, though single readings can be large or run the other way; also: nearly all actives have a fitted effect of over 50% in size
A number is an active result; i = inactive; ? = inconclusive; nt = not tested or not shown; [ ] = another dose, or the depositor's remark. Sampled rows, rich in hits. Any-hit rate of the full collection: about 13%. Unless noted, calls follow the shape of the dose curve; as a rule, active = well fitted curve in the direction sought with a large enough effect; inconclusive = small, poorly fitted or top-dose-only effect, or another doubt; inactive = no such curve, though single readings can be large; an effect the other way counts as inactive or inconclusive.

SMILES	G9a block	ALDH1A1 inh	Lamin A splicing	Sfp PPTase inh	miR-21 FLuc	KDM4E inh
CCOCC(=O)Nc1ccccc1C(=O)O	nt	i	i	i	i	?
CCOCC(=O)Nc1nc(-c2ccccc2)c(CC)s1	35.5µM	i	i	i	i	i
CNc1ncnc2ccc(-c3c(C)noc3C)cc12	i[12.7 µM]	nt	nt	nt	nt	nt
CC(C)CC(=O)NCC(c1ccc2c(c1)OCO2)N1CCN(c2ccccc2F)CC1 (stereo not drawn)	i	nt	i	nt	i	nt
CCNC(=S)NNc1nc(N2CCOCC2)nc(N2CCOCC2)n1	?	i	i[9.22 µM]	14.1µM	i	i
CNC(=S)NNc1nc(N2CCOCC2)nc(N2CCOCC2)n1	?	i	nt	2.24µM	i	i
C1CN(c2nc(N3CCOCC3)nc(N3CCOCC3)n2)CCO1	i	nt	nt	i	i	i
CCCNc1nc(N2CCOCC2)nc(N2CCOCC2)n1	?	i	i	i	i	i
COc1cc(C(C)=O)ccc1OCC(=O)Nc1ccc(C)c(S(=O)(=O)N2CCCCCC2)c1	i[0.501 µM]	nt	nt	nt	nt	nt
Cc1ccc(N2CCN(C(=O)NCc3noc4ccccc34)CC2C)cc1 (stereo not drawn)	i	nt	nt	nt	i	nt
COc1ccc(-c2nc(CN3CCC(C(=O)NCc4ccc(C)cc4)CC3)c(C)o2)cc1OC	i	nt	nt	nt	i	nt
Cc1ccccc1-c1noc(CCC(=O)NCC2CCCO2)n1 (stereo not drawn)	12.6µM	i	i	i	i	i
c1ccc(N/N=C2\CCCc3ccccc32)nc1	i	i	i	i	i	i
Cc1cc(N/N=C2/CCCc3ccccc32)nc2ccccc12	50.1µM	i	?	?	i	?
COc1ccc(-c2oc(NC(=O)CCl)c(C#N)c2-c2ccc(OC)cc2)cc1	50.1µM	2.51µM	?	i	?	?
COc1ccc(C(=O)NC(=S)Nc2ccc3oc(=O)ccc3c2)cc1[N+](=O)[O-]	i	nt	nt	i	i	nt
CC(=O)c1cccc(NC(=O)C2CCN(C(=O)c3cnn(-c4ccccc4)c3-n3cccc3)CC2)c1	i	nt	nt	nt	?	nt
O=S(=O)(c1ccccc1)c1nc(-c2ccccc2)oc1NCc1cccnc1	?	25.1µM	i	i	i	i
CNc1oc(C)nc1S(=O)(=O)c1ccccc1	?	?	i	31.6µM	i	?
CN(C)CCNc1oc(-c2ccccc2Cl)nc1S(=O)(=O)c1ccccc1	i[12.7 µM]	nt	nt	nt	nt	nt
Cc1nc(S(=O)(=O)c2ccc(Cl)cc2)c(NCc2ccccc2)o1	44.7µM	?	i	i	i	i
CCOc1cccc(C2c3[nH]c4ccccc4c3CCN2C(=O)CCc2ccccc2)c1 (stereo not drawn)	i	nt	?	nt	i	nt
CCOc1ccc(CNC(=O)c2ccc3nc(Cc4ccc(OC)cc4)oc3c2)cc1OC	?	nt	?	nt	i	nt
CN1C(=O)CC[C@@H]1c1cccnc1	i[21.5 µM]	i	?	i	nt	?
CCC(C)NC(=O)C1CCC(CNS(=O)(=O)c2ccc(Cl)cc2)CC1 (stereo not drawn)	i	nt	i	nt	i	nt
SMILES	G9a block	ALDH1A1 inh	Lamin A splicing	Sfp PPTase inh	miR-21 FLuc	KDM4E inh
FC(F)(F)c1cc(C(F)(F)F)c2ccc(N/N=C/c3ccccc3)nc2n1	i	i	i	i	i	i
N#CC(c1ccccc1)c1ccc2c(C(F)(F)F)cc(C(F)(F)F)nc2n1 (stereo not drawn)	10µM	22.4µM	i	i	?	i
Cc1ccc(C(C#N)c2ccc3c(C(F)(F)F)cc(C(F)(F)F)nc3n2)cc1 (stereo not drawn)	11.2µM	i	?	i	i	i
CCOc1ccc(CCNC(=O)c2ccccc2OCc2c(C)noc2C)cc1OCC	i	nt	nt	nt	nt	nt
COc1cc(/C=N/Nc2nc(=O)[nH]nc2C)cc([N+](=O)[O-])c1O	i	nt	nt	56.2µM	i	i
COc1cc(/C=N/Nc2nc(=O)[nH]nc2C)ccc1O	i[12.7 µM]	nt	nt	56.2µM	i	i
COc1ccc(/C=N/Nc2nc(=O)[nH]nc2C)cc1[N+](=O)[O-]	?	?	i	?	i	i
COc1ccc(/C=N/Nc2nc(=O)[nH]nc2C)cc1OC	i	nt	nt	i	i	i
Cc1n[nH]c(=O)nc1N/N=C/c1ccc(O)c([N+](=O)[O-])c1	i	?	i	56.2µM	i	i
Cc1ccc(NC(=O)Cn2nc(C(F)(F)F)c3c2CCCC3)cc1	i	nt	nt	nt	i	nt
CCC(C)NC(=O)c1cc2cc(S(=O)(=O)N3CCCCC3)ccc2n1C (stereo not drawn)	i	nt	i	nt	i	nt
O=C1C=C[C@@H](O)[C@H]2[C@@H]3C(=O)N(C4CCCCC4)C(=O)[C@@H]3CC[C@H]12	nt	?	nt	i	nt	nt
O=C1C2C3C=CC(C2C(=O)N1C1CCCCC1)C1C2C(=O)N(C4CCCCC4)C(=O)C2C31 (stereo not drawn)	i	1.41µM	i	i	i	i
O=C1C2C3C=CC([C@@H]2C(=O)N1C1CCCCC1)[C@H]1C(=O)N(C2CCCCC2)C(=O)C31 (stereo partly drawn)	i[12.7 µM]	1.41µM	i	i	i	i
CC(=O)Oc1c(I)cc(I)cc1C(=O)Nc1ccc(Cl)cc1	i	nt	nt	i	?	nt
COc1ccc(C2=NOC(COc3ccc([N+](=O)[O-])cc3)C2)cc1 (stereo not drawn)	i	nt	nt	i	i	i
CCCCn1c(SCC(=O)N2CCN(c3ccccc3)CC2)nc2ccsc2c1=O	39.8µM	?	?	?	i	i
CCC1CCCCN1C(=O)CSc1nc2ccsc2c(=O)n1Cc1ccccc1 (stereo not drawn)	i	?	i	i	i	i
CCCCn1c(SCC(=O)Nc2ccc(OCC)cc2)nc2ccsc2c1=O	i	nt	?	nt	i	nt
CCCCn1c(SCC(=O)N2CCC(C)CC2)nc2ccsc2c1=O	i	11.2µM	?	i	i	i
CCCCn1c(SCC(=O)Nc2ccccc2C(F)(F)F)nc2ccsc2c1=O	i	28.2µM	i	i	i	i
CCCCn1c(SCC(=O)N2CCOCC2)nc2ccccc2c1=O	i	nt	nt	i	i	nt
COc1ccc2oc(-c3cccc(NC(=O)c4ccc(C#N)cc4F)c3)nc2c1	i	nt	nt	nt	i	nt
COc1ccc(-c2n[nH]c(=S)nc2-c2ccc(OC)cc2)cc1	?	nt	nt	i	i	nt
FC(F)(F)c1ccc(-c2nc(=S)[nH][nH]2)cc1	3.55µM	nt	nt	56.2µM	i	i
SMILES	G9a block	ALDH1A1 inh	Lamin A splicing	Sfp PPTase inh	miR-21 FLuc	KDM4E inh
CCOc1ccc(-c2nc(=S)[nH][nH]2)cc1	1.41µM	25.1µM	i	?	i	?
COc1ccc(-c2nc(=S)[nH][nH]2)cc1	1.78µM	12.6µM	i	?	i	?
Oc1ccc(-c2nc(=S)[nH][nH]2)cc1	1.26µM	?	i	?	i	i
Cc1ccc2c(c1)N(C(=O)N1CCC(C(=O)NCc3cccs3)CC1)CC(C)O2 (stereo not drawn)	i	nt	i	nt	i	nt
O=C(COc1ccc2ccc(=O)oc2c1)N1CCc2ccccc21	i	?	i	i	i	?
COc1ccc(-c2nn[nH]n2)cc1OC	i	i	i	i	i	i
COc1ccc(-c2nc(=S)[nH][nH]2)cc1OC	0.562µM	?	nt	56.2µM	i	?

Compound activity as filed in PubChem BioAssay.
